Data: paper PMC10302299, “Spruce Balm-Based Semisolid Vehicles for Wound Healing: Effect of Excipients on Rheological Properties and Ex Vivo Skin Permeation” (Pharmaceutics, 2023)

Assay: Ex vivo skin permeation, static Franz-type diffusion cells, HPLC-DAD relative quantification
Format: in vitro ADME, porcine
Details: for Mean Flux Based on AUC/cm^2/h (relative mass flux): infinite dose 500 mg, 32 °C, n = 9 cells
Description: Skin permeation studies were performed using dermatomed porcine ear skin and static Franz-type diffusion cells (PermeGear, Hellertown, PA, USA, permeation area of 0.95 cm^2, acceptor volume of 2 mL). Porcine ears were obtained after sacrifice from a local abattoir (Johann Gantner GmbH, Gemeinde Hollabrunn, Austria, male and female animals at six months of age). The ears were cleaned under running water and were dried and stored at −18 °C until use.
Fresh vehicles were prepared 48 h before the start of the experiments. Skin from the dorsal side of the ears was cut to a thickness of 400 µm with a dermatome (Aesculap GA 630 DBP, Aesculap AG, Tuttlingen, Germany). Hair was removed with scissors. The skin was cut into 1 × 1 cm pieces and was clamped between donor and acceptor chamber. The acceptor medium consisted of a mixture of phosphate-buffered saline and ethanol (60:40% v/v) to ensure sink conditions. The phosphate-buffered saline was prepared as described in the Pharmacopoeia Europaea (0.012 M, pH of 7.4, 0.238% w/w sodium monohydrogen phosphate, 0.019% w/w potassium dihydrogen phosphate, and 0.8% w/w sodium chloride). Before starting the experiments, the transepidermal water loss (TEWL) was measured with a closed-chamber device and a coupling adapter (Aquaflux® AF200, Biox Systems Ltd., London, UK) to ensure consistent skin quality and barrier function.
The ointments were applied to the donor chambers at infinite dose conditions (500 mg of formulation). The donor compartment and sampling arm were occluded with Parafilm to prevent evaporation of sample or acceptor fluid. The diffusion cells were kept in a water bath at 32 °C to simulate skin surface temperature. Magnetic stirring was employed to avoid concentration layers within the acceptor fluid. Cells were regularly checked for air bubbles. After predefined intervals (2, 4, 6, 8, 24, 28, and 32 h), an aliquot of 200 μL of acceptor medium was taken for analysis and was replaced with fresh acceptor medium at 32 °C.
The most suitable formulation was chosen for analysis of permeation potential as well as the commercial product Picea-Salbe®. Three individual permeation experiments with n = 3 cells were performed for formulations and controls. The final results depict mean values ± SDs of n = 9 cells per formulation. As controls, the respective ointment bases without PSB as well as the plain acceptor medium alone were used.
For the analysis of samples drawn from Franz diffusion cells, a Shimadzu HPLC instrumentation with diode array detection (SHIMADZU Autosampler SIL-20AC HAT, SHIMADZU Column Oven CTO-20AC, SHIMADZU Communications Bus Module CBM-20A, SHIMADZU Degasser DGU-20A5, SHIMADZU Diode Array Detector SPD-M20A, SHIMADZU Liquid Chromatograph LC-20AD, SHIMADZU LabSolutions Software 5.81, Shimadzu, Kyoto, Japan) was used. A reversed-phase C18 column (LiChrospher 100 RP18e, 5 μm, 250 × 4 mm, Merck KGaA, Darmstadt, Germany) was employed as stationary phase. Double-distilled water + 0.1% formic acid (solvent A) and acetonitrile + 0.1% formic acid (solvent B) served as mobile phase, and gradient elution at 1 mL/min flow rate was applied as follows: 15% solvent B rose to 95% solvent B within 45 min (rate of 1.77%/min) followed by 5 min washing step at 98% solvent B and re-equilibration for 10 min with 15% solvent B. Samples drawn from Franz diffusion cells were centrifuged, and 10 μL were injected into the system. PSB samples were dissolved in acetone to a final concentration of 5 mg/mL, and 2 μL were analyzed. […]

## Pinoresinol
After 32 h, lard ointment versus wool wax/castor oil ointment
  total permeated amounts (AUC), comparison of the two ointments: significantly higher total permeated amounts were observed from the lard ointment
Mean flux from lard versus wool wax/castor oil
  Enhancement Factor: 2.8
Vehicle lard (Picea-Salbe, 20% spruce balm)
  Mean Flux Based on AUC/cm^2/h (relative mass flux): 243.842 ± 93.731 AUC/cm^2/h
Vehicle wool wax/castor oil with 20% PSB (batch PSB5)
  Mean Flux Based on AUC/cm^2/h (relative mass flux): 87.258 ± 27.553 AUC/cm^2/h
Wool wax/castor oil and Picea-Salbe ointments
  time after which detectable in acceptor samples: 8 h
